# Laboratory results taken from ChEMBL document CHEMBL5360528, “A systematic review on the kappa opioid receptor and its ligands: New directions for the treatment of pain, anxiety, depression, and drug abuse” (Eur J Med Chem, 2022).
# The chains behind the UniProt entries cited, without tags or fusion partners. Where a name states a change or a piece, a line headed by the entry shows the natural chain unless it says otherwise.
# UniProt P41145: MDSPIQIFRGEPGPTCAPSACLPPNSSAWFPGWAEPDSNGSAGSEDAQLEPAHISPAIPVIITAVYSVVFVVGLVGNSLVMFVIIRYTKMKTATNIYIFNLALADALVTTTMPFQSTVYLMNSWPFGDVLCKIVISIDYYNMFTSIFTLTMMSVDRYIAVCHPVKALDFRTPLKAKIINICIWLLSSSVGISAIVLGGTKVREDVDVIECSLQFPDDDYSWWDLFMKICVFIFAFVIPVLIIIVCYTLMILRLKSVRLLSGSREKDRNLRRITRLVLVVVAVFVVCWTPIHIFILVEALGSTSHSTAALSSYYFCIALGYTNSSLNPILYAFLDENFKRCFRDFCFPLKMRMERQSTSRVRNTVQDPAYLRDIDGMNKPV
# UniProt P41144: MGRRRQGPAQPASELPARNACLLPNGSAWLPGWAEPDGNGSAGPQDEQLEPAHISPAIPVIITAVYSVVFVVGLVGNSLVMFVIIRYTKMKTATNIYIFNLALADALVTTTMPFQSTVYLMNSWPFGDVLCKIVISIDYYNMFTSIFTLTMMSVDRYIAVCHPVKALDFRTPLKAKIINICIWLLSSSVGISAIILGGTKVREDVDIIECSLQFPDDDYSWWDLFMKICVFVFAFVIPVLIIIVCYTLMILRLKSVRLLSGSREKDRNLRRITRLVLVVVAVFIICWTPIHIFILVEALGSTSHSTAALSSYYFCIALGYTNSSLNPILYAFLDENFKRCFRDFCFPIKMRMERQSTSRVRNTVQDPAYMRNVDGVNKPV
# Legend:
# [1] = target: Kappa-type opioid receptor (Homo sapiens, UniProt P41145); test: Binding affinity to KOR (unknown origin) assessed as inhibition constant
# [2] = target: Kappa-type opioid receptor (Cavia porcellus, UniProt P41144); test: Agonist activity at KOR in guinea pig brain membranes assessed as stimulation of [35S]GTPgammaS binding measured after 1 hr by liquid scintillation counting analysis relative to control; assay type: functional, cell membranes, Membrane
compound,measurement,setting,value
C[C@H]1[C@H]2Cc3ccc(C(N)=O)cc3[C@@]1(C)CCN2CC1CC1,Ki,[1],0.42 nM
same,EC50,[2],8.8 nM
